From EP4701613B1, “COSMETIC USES FOR MAINTAINING AND RESTORING SKIN BARRIER FUNCTION” (dated 2026)

What was measured:
ALOX12B = experiment: qPCR gene expression assay in differentiated primary keratinocytes: ALOX12B; conditions: pooled primary keratinocytes differentiated 72hrs with 1.2mM Ca2+, treated 24hrs, test compound concentration of 10µm; relative to housekeeper genes
Method: (§1) Barrier function and development are keys to proper skin function and health. A comparative series of gene assays were performed on barrier function related genes to show the performance of compounds of general formula (I) according to the present invention.
(§2) Primary keratinocytes from 5 donors were pooled and plated at 100,000 cells/well in 6 well plates. Cells were grown in KGM-Gold (Lonza) at 37°C, 5% CO2 and then differentiated for 72hrs via the addition of 1.2mM Ca^2+. Cells were then treated for 24hrs with fresh medium containing vehicle, or vehicle plus test compound, using a test compound concentration of 10µm. Following treatment any effect on cell viability was confirmed via an LDH assay on the culture media. The cells were washed in PBS and RNA isolated via QIAzol (QIAgen) following the manufacturer's instructions. RNA quantity and quality was measured via Nanodrop and bioanalyzer assessments ahead of qPCR assessment for the levels of specific gene products. Test genes were selected to cover various aspects of epidermal function and quantified relative to the levels of a control panel of housekeeper genes. A positive fold change (log2 FC) value indicates an increase of expression, while a negative fold change indicates a decrease in expression.

CERS3 = experiment: qPCR gene expression assay in differentiated primary keratinocytes: CERS3; conditions: pooled primary keratinocytes differentiated 72hrs with 1.2mM Ca2+, treated 24hrs, test compound concentration of 10µm; relative to housekeeper genes
Method: as §1, §2

ELOVL4 = experiment: qPCR gene expression assay in differentiated primary keratinocytes: ELOVL4; conditions: pooled primary keratinocytes differentiated 72hrs with 1.2mM Ca2+, treated 24hrs, test compound concentration of 10µm; relative to housekeeper genes
Method: as §1, §2

CLDN1 = experiment: qPCR gene expression assay in differentiated primary keratinocytes: CLDN1; conditions: pooled primary keratinocytes differentiated 72hrs with 1.2mM Ca2+, treated 24hrs, test compound concentration of 10µm; relative to housekeeper genes
Method: as §1, §2

FLG = experiment: qPCR gene expression assay in differentiated primary keratinocytes: FLG; conditions: pooled primary keratinocytes differentiated 72hrs with 1.2mM Ca2+, treated 24hrs, test compound concentration of 10µm; relative to housekeeper genes
Method: as §1, §2

KLK11 = experiment: qPCR gene expression assay in differentiated primary keratinocytes: KLK11; conditions: pooled primary keratinocytes differentiated 72hrs with 1.2mM Ca2+, treated 24hrs, test compound concentration of 10µm; relative to housekeeper genes
Method: as §1, §2

KRT10 = experiment: qPCR gene expression assay in differentiated primary keratinocytes: KRT10; conditions: pooled primary keratinocytes differentiated 72hrs with 1.2mM Ca2+, treated 24hrs, test compound concentration of 10µm; relative to housekeeper genes
Method: as §1, §2

LOR = experiment: qPCR gene expression assay in differentiated primary keratinocytes: LOR; conditions: pooled primary keratinocytes differentiated 72hrs with 1.2mM Ca2+, treated 24hrs, test compound concentration of 10µm; relative to housekeeper genes
Method: as §1, §2

TGM1 = experiment: qPCR gene expression assay in differentiated primary keratinocytes: TGM1; conditions: pooled primary keratinocytes differentiated 72hrs with 1.2mM Ca2+, treated 24hrs, test compound concentration of 10µm; relative to housekeeper genes
Method: as §1, §2

[1] = tested on: barrier function related genes; experiment: qPCR gene expression assay in differentiated primary keratinocytes: all assayed genes together; conditions: average over the nine test genes; keratinocytes treated 24hrs, test compound concentration of 10µm
Method: as §1, §2

## COc1ccc(NC(=O)c2cccc(NC(=O)c3ccccc3)c2)cc1
ALOX12B
  Test Gene ALOX12B log2 FC: 0.277 log2 FC
CERS3
  Test Gene CERS3 log2 FC: 0.424 log2 FC
ELOVL4
  Test Gene ELOVL4 log2 FC: 0.301 log2 FC
CLDN1
  Test Gene CLDN1 log2 FC: 0.416 log2 FC
FLG
  Test Gene FLG log2 FC: 0.482 log2 FC
KLK11
  Test Gene KLK11 log2 FC: 0.342 log2 FC
KRT10
  Test Gene KRT10 log2 FC: 0.476 log2 FC
LOR
  Test Gene LOR log2 FC: 0.567 log2 FC
TGM1
  Test Gene TGM1 log2 FC: 0.497 log2 FC
[1]
  Average log2 FC: 0.420 log2 FC

## COc1cccc(NC(=O)c2ccc(C)cc2)c1
ALOX12B
  Test Gene ALOX12B log2 FC: 0.165 log2 FC
CERS3
  Test Gene CERS3 log2 FC: 0.558 log2 FC
ELOVL4
  Test Gene ELOVL4 log2 FC: 0.583 log2 FC
CLDN1
  Test Gene CLDN1 log2 FC: 0.459 log2 FC
FLG
  Test Gene FLG log2 FC: 0.775 log2 FC
KLK11
  Test Gene KLK11 log2 FC: 0.224 log2 FC
KRT10
  Test Gene KRT10 log2 FC: 0.892 log2 FC
LOR
  Test Gene LOR log2 FC: 0.583 log2 FC
TGM1
  Test Gene TGM1 log2 FC: 0.596 log2 FC
[1]
  Average log2 FC: 0.537 log2 FC
